Here are results for one molecule from patent US20160290995A1, “METHODS OF SELECTING AKT AGONISTS OR ANTAGONISTS” (OREGON HEALTH & SCIENCE UNIVERSITY, priority 2015, published 2016).

Format in all cases: cell-based, mouse
One test has as its system Akt. The test is described as follows: FOXO1-clover reporter live-cell imaging (relative nuclear intensity) in C3H10T1/2 fibroblasts. The conditions noted are these: serum-starved cells, 60 min; 10% FBS, PDGF-BB 206 pM, R3-IGF-I 1 nM, BMP-2 15 nM. Here is the method:
Cells were imaged every 2-min for 60 min. At the end of the incubation period whole cell lysates were collected.
10T1/2 cells and C2 myoblasts were incubated in serum-free medium for 90 min. R3-IGF-I was added in supplemented FluoroBrite [0 to 500 pM], and cells were imaged every 2-min for 60 min. […]
Live cell imaging was performed using an EVOS FL Auto microscope with a stage top incubator that was maintained at 37° C. and 95% humidified air with 5% CO2. Images were collected at 100× magnification at different intervals, using a 10× Fluorite objective (numerical aperture: 0.3), and a GFP light cube (excitation peak, 472/22 nm; emission peak, 510/42 nm). Images were analyzed with the NIH ImageJ plug-in Fiji (NIH, Bethesda, Md.), after using the Polynomial Fit plug-in to subtract background fluorescence, the Stack Reg (rigid registration) plug-in to register images, and the Gaussian Blur plug-in (at 2-pixels) to average fluorescence across pixels. Individual cells were manually tracked using the mTrackJ plug-in (Meijering E et al, Methods Enzymol 504, 183-200 (2012); incorporated by reference herein) by selecting a single point in the nucleus. Cells that died, divided, or migrated out of frame were excluded from analysis.

In the next test the test system is Akt phosphorylation. The test is described as follows: Immunoblotting of Akt and PRAS40 phosphorylation in 10T1/2 whole cell lysates. The conditions noted are these: 60 min; 10% FBS, PDGF-BB 206 pM, R3-IGF-I 1 nM, BMP-2 15 nM. The method, then:
(§1) 10T1/2 cells were incubated in supplemented FluoroBrite plus R3-IGF1 [1 nM], PDGF-BB [206 pM], BMP-2 [15 nM]), 10% FBS, or vehicle. Cells were imaged every 2-min for 60 min. At the end of the incubation period whole cell lysates were collected.
(§2) Whole cell protein lysates were prepared as described (Mukherjee A and Rotwein P, Mol Endorcrinol 22, 1238-1250 (2008); incorporated by reference herein). Protein aliquots (15 μg/lane) were resolved by SDS-PAGE (12% separating gel), followed by transfer to Immobilon-FL membranes, and blocking with 50% AquaBlock solution. Membranes were incubated sequentially with primary and secondary antibodies, as described (Mukherjee and Rotwein, 2008 supra). Primary antibodies were incubated for 12-16 hr at a 1:1000 dilution, except for α-tubulin (1:10,000), and secondary antibodies for 90 min at 1:5000. Images were captured using the LiCoR Odyssey and version 3.0 analysis software (Lincoln, Nebr.).
C3H10T1/2 cells stably expressing FoxO1-clover were incubated in SFM with Fluorobrite imaging media for 90 min followed by addition of insulin [1400 pM], EGF [4.2 nM], PDGF-AA [1400 pM], or PDGF BB [104 pM]. […]

The next test deals with Smad5. The test is described as follows: Immunoblotting of Smad5 phosphorylation in 10T1/2 whole cell lysates. The conditions noted are these: BMP-2 15 nM, 60 min. The method, then: as §1, §2

B1: BMP-2: recombinant human BMP-2 (R&D Systems) (protein, UniProt P12643 283-396, looked up)
Bone morphogenetic protein 2: QAKHKQRKRLKSSCKRHPLYVDFSDVGWNDWIVAPPGYHAFYCHGECPFPLADHLNSTNHAIVQTLVNSVNSKIPKACCVPTELSAISMLYLDENEKVVLKNYQDMVVEGCGCR
For the molecule B1, the “subcellular localization of FOXO1-clover (result in words)” value with Akt is “predominantly nuclear localization of FOXO1-clover”. Further, the “Akt phosphorylation (pAkt T308 immunoblot)” value in the test on Akt phosphorylation is reported as “minimal Akt phosphorylation”. Also, the “Smad5 phosphorylation (immunoblot)” value with Smad5 is “did stimulate phosphorylation of Smad5”.
